The chains behind the UniProt entries cited, without tags or fusion partners. Where a name states a change or a piece, a line headed by the entry shows the natural chain unless it says otherwise. A line that says so, or that is headed by a name, gives the form on record, which may keep a tag or linker. Residues count along the entry.
UniProt P55212, 194-293 limits assumed: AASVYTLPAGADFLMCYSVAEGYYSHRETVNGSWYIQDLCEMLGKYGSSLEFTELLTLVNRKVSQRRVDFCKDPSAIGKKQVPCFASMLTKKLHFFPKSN
UniProt P55212, 24-193 with tags or gaps with the stated changes limits assumed: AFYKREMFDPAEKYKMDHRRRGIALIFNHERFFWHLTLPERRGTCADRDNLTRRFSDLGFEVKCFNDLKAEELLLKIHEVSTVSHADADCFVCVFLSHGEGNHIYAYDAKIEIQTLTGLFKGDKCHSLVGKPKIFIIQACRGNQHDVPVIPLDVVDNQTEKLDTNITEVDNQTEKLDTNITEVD

According to article PMC6445123 (Scientific Reports, 2019):

Columns and labels:
active Casp6 (Casp6-WT) [1] = molecular target: T1, active Casp6 (Casp6-WT) (Homo sapiens, UniProt P55212, INS179NQTEKLDTNITEVD); experiment: Fluorescence-based Ac-VEID-AFC cleavage assay (Casp6 activity, IC50 determination)
Experimental: (§1) To assess the potency of in silico hits, a fluorescence-based Ac-VEID-AFC cleavage assay was used to measure recombinant active Casp6 reaction rate in the absence or presence of 100 µM concentration of compounds. A 30% inhibition cut off was arbitrarily chosen for further investigation of putative inhibitors. […] AFC signal interference by compound intrinsic fluorescence was ruled out (Fig. S4). Casp6 inhibition was confirmed for seven compounds (C7, C13, C14, S2, S10, S11 and S13) using a colorimetric Ac-VEID-pNA cleavage assay (Table 2, Fig. S3). […] The hits had IC50 values ranging from 13.2 µM to 289 µM (Table 2).
Casp6 active sites were quantified using zVAD-FMK (N-benzyloxycarbonyl-Val-Ala-Asp-(O-methyl)-fluoromethylketone, MP Biomedicals, Santa Ana, CA, USA)[51],[64]. Casp6 activity was measured in Stennicke’s buffer (SB: 20 mM piperazine-N,N′-bis-(2-ethanesulfonic acid) pH 7.2, 100 mM NaCl, 10 mM DTT, 1 mM EDTA, 0.1% 3-[(3-cholamidopropyl)-dimethylammonio]-2-hydroxy-1-propanesulfonic acid, 10% sucrose)[65] using 40 µM Ac-VEID-AFC (Ac-Val-Glu-Ile-Asp-7-Amino-4-trifluoromethylcoumarin, Enzo Life Sciences, Farmingdale, NY, USA)[64] and 10-250 nM active site titrated Casp6. Reactions were initiated by Ac-VEID-AFC addition and followed for 20 min at 37 °C in a black clear bottom 96-well microplate (Costar, Corning, NY, USA) in Synergy H4 Hybrid instrument (BioTek, Winooski, VT, USA) with excitation/emission at 380/505 nm. Released AFC was calculated from AFC standard curve (0-25 µM). Casp6 VEIDase activity (released pmol AFC/min) was calculated from the initial linear reaction part. Ac-VEID-AFC hydrolysis initial velocities were measured with 10 nM active-site titrated Casp6 and […] Ac-VEID-AFC. Initial velocities v versus substrate concentration [S] were fit to a rectangular hyperbola using Michaelis-Menten equation in GraphPad Prism 5 (GraphPad Software, La Jolla, CA, USA).
(§2) In fluorescence-based Casp6 activity assay, 10 µM Ac-VEID-AFC was added to 20 nM Casp6 in SB with 100 μM compound and 1% dimethyl sulfoxide (DMSO), and reaction rate was measured for 20 min at 37 °C as above. Compound potency was calculated by normalising Ac-VEID-AFC cleavage rate to 1% DMSO control. In colorimetric Casp6 activity assay, 200 µM Ac-VEID-pNA (N-acetyl-Val-Glu-Ile-Asp-p-nitroanilide, Enzo Life Sciences) was added to 200 nM Casp6 in SB with 100 μM compound, and Ac-VEID-pNA cleavage rate was measured at 37 °C for 30 min in clear 96-well plate (Sartstedt, Nümbrecht, Germany) using Synergy H4 plate reader at 405 nm. Absorbance was converted to the released pNA amount based on a standard curve of 0–250 µM pNA. Cleavage rates were calculated from the linear assay phase and were normalised to 1% DMSO control. In Casp6-C163A cleavage assay, 0.5 ng/µl Casp6-WT was preincubated with 100 µM inhibitor, 5 µM Q-VD-OPh or 1% DMSO in SB (30 min, RT), followed by transfer on ice, addition of 0.5 µg/µl Casp6-C163A, and incubation (37 °C, 5, 10 and 15 min). Reactions were stopped by adding SDS-PAGE sample buffer (62.5 mM Tris pH 6.8, 2% SDS, 0.1 M DTT, 0.01% Bromphenol Blue, 10% glycerol) and heating (5 min, 95 °C). Samples (2 µl) were analysed on 15% SDS-PAGE gels, proteins were stained with Coomassie blue, and gels were de-stained with 10% acetic acid. The intensities of protein bands were quantified from scanned gels using ImageJ. The band intensity of Casp6-C163A without a prodomain was plotted against the time and the Casp6-C163A cleavage rates were calculated from the slopes of linear plots. The % activity of Casp6-WT in the presence of inhibitors was calculated relative to DMSO control.
IC50 values were determined against 20 nM Casp6 active sites in fluorescence-based Casp6 activity assay with 10 µM Ac-VEID-AFC and 1 nM-500 µM inhibitor. […]

active Casp6 (Casp6-WT) [2] = molecular target: T1, active Casp6 (Casp6-WT); experiment: Casp6-C163A cleavage assay (prodomain cleavage of catalytically inactive Casp6-C163A by active Casp6); conditions: rate of Casp6-C163A prodomain cleavage vs DMSO control
Experimental: as §1, §2

Casp6 [3] = molecular target: T2, Casp6 (Homo sapiens, UniProt P55212, INS179NQTEKLDTNITEVD); experiment: Reversibility of Casp6 inhibition (pre-incubation at 10-fold IC50, rapid 100-fold dilution); conditions: recovery of activity after 60 min pre-incubation and 100-fold dilution
Experimental: Supplementary Figure S5. Mechanism of Casp6 inhibition with C13 and S10G. (a) Inhibition of Casp6 with C13 (left panel) and S10G (right panel) is reversible. The recovery of Casp6 activity after 60 min pre-incubation with C13 and S10G at a concentration of inhibitor equal to 10-fold the IC50 value followed by a rapid 100-fold […]
(1 picture or pasted object on this page, not shown here) […]
dilution into Casp6 activity assay solution. The control samples DMSO and Q-VD-OPh were pre-incubated and diluted in the absence of inhibitor, and in the presence of an irreversible inhibitor Q-VD-OPh, respectively. Data points represent mean ± standard error of the mean (SEM) from three independent experiments. (b) Coomassie stain of SDS-PAGE of purified recombinant WT -, L200A-, and K284A-Casp6 (left panel) expressed from a full -length Casp6 encoding construct (Fig. 1c ), and copurified LS and SS of WT -, L200A-, and K284A-LS-SS-Casp6 (right panel). FL (full-length Casp6), ΔCasp6 (Casp6 without a prodomain), LS-L (large subunit with linker), LS (large subunit), and SS (small subunit) depict different bands of Casp6. (c) Michaelis-Menten kinetic plots (top panel) and calculated KM and Vmax values (bottom panel) for Casp6-WT-LS-SS (left panel), Casp6-L200A-LS-SS (middle panel), and Casp6-K284A-LS-SS (right panel) enzymatic activity in presence of 1% DMSO (0 µM C13) or increasing doses of C13. […]

Casp6 [4] = molecular target: T2, Casp6; experiment: Determination of inhibition mechanism and Ki (Michaelis-Menten, Lineweaver-Burk plots)
Experimental: The inhibition of Casp6 activity with S10G and C13 was reversible (Fig. S5). To determine mode of inhibition, kinetic analyses were conducted on Casp6 using S10G and C13 (Fig. 4a). In the Lineweaver-Burk plot, lines of best fit converged at a single point above the x-axis and left from the y-axis, which is characteristic of noncompetitive inhibition[54] (Fig. 4b). The dissociation constant (Ki) of S10G was 1.8 µM, which was approximately 3-fold lower than C13 (Ki = 5.3 µM) (Fig. 4c).
Compounds, S10G (2.5 µM, 4.2 µM, 10 µM), and C13 (5 µM, 14 µM, 50 µM), were added to 20 nM active site titrated Casp6 and enzyme activity was measured with eight different Ac-VEID-AFC substrate concentrations (5.0 μM–200 μM) using fluorescence-based Casp6 activity assay as above. The apparent KM and Vmax values were determined through nonlinear regression analysis of Michaelis-Menten plots (v vs. [S]) using GraphPad Prism 5. The inhibition mode was determined from the pattern of converging Lineweaver-Burk plots (1/v vs. 1/[S])[54]. The dissociation constant (Ki) for Casp6-inhibitor complex was determined from the x-axis intercept (which is equal to −Ki) in the plot of Lineweaver-Burk slopes vs. inhibitor concentration. Alternatively, inhibition model and Ki were determined by global fit of kinetic data to the competitive, noncompetitive, noncompetitive (mixed) or uncompetitive inhibition models using respective equations in GraphPad Prism 5. IC50 curves for S10G and C13 against Casp6 were generated using the fluorescence-based activity assay with 5–75 µM Ac-VEID-AFC.

% Inhibition with 100 µM compound (fluorescence assay) (active Casp6 (Casp6-WT) [1]; 100 µM compound, 10 µM Ac-VEID-AFC, 20 nM Casp6, relative to 1% DMSO control): 98.6 ± 2.4% | fold lower IC50 than S10 (active Casp6 (Casp6-WT) [1]; compared with IC50 of S10 (30.2 µM)): ~ 3.8 fold | IC50 (active Casp6 (Casp6-WT) [1]; fluorescence assay, 20 nM Casp6 active sites, 10 µM Ac-VEID-AFC): 4.2 µM | % Inhibition with 100 µM compound (Casp6-C163A cleavage assay) (active Casp6 (Casp6-WT) [2]): 99.1 ± 1.5% | reversibility of Casp6 inhibition (Casp6 [3]): reversible | fold lower Ki than C13 (Casp6 [4]): approximately 3 fold | mode of inhibition (Casp6 [4]; Lineweaver-Burk plot pattern): noncompetitive inhibition | Ki (Casp6 [4]; read-out: Ki (dissociation constant), from plot of Lineweaver-Burk slopes vs inhibitor concentration, Casp6, Ac-VEID-AFC): 1.8 µM
SMILES: O=C(Cn1cc(C=C2C(=O)NC(=O)N(Cc3ccco3)C2=O)c2ccccc21)NCc1ccco1
